Test results reported in patent publication US20020192161A1, “Animal model for evaluating analgesics” (priority 2001, published 2002).

Test: Bioavailability of oral ibuprofen formulations in vagal-suppressed (propantheline-treated, Pain Model) rats
Type: in vivo, Sprague-Dawley rats
Conditions: 20 mg/kg ibuprofen oral as crushed tablets
Method: The animal models are Adult male Sprague-Dawley rats with body weight of 250-300 g, and which were cared for in accordance with the principles and guidelines of the Canadian Council of Animal Care. All rats were catheterized in the right jugular vein for sample collection.
An animal model having suppressed vagal properties were produced by administering (intraperitoneal injection) to the rats two 20 mg/kg doses of propantheline (test, n=6), an anticholinergic agent with known vagal suppressive properties, the first dose at 2 hours prior to administration of an NSAID, and the second at 1 hour prior.
The tablets were crushed gently and small pieces were administered into the stomach via a plastic tube followed by 0.5 mL tap water. […] They had free access to water.

- AUC (0-1): 12.2 μg/h/mL^−1
Compound: CC(C)Cc1ccc(C(C)C(=O)O)cc1 (racemic) [ibuprofen, (±)-2-(4-Isobutylphenyl)propionic acid]
